Earlier results, collected in patent US9145555B2, “Integrated—ligand-responsive microRNAs” (California Institute of Technology, priority 2009, dated 2015).

System: 293 cells
Settings: higher theophylline concentrations; cited from earlier work

## Cn1c(=O)c2[nH]cnc2n(C)c1=O [theophylline]
  cytotoxicity: cytotoxicity
